Experimental data reported in US8569343B2, “Oligomer-opioid agonist conjugates” (Nektar Therapeutics, priority 2007, dated 2013).

Chains of the proteins cited; added tags and fusions are not shown. Lines headed by an entry give the natural chain unless they say otherwise; changes in a name come on top.
UniProt P41145: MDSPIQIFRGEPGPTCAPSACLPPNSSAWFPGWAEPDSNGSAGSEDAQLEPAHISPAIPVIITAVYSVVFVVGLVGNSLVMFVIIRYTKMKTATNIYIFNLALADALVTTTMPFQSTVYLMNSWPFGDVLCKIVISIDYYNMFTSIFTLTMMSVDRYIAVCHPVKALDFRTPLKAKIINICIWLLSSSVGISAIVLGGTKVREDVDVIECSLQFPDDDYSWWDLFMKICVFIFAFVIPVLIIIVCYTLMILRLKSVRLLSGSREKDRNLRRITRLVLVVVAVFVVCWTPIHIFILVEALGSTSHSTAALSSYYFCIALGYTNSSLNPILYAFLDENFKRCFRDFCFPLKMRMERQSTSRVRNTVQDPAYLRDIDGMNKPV

Target: T1, cloned human kappa opioid receptor (Homo sapiens, UniProt P41145)
T1 construct: expressed in transfected cells; host or cells: CHO cells
Test: cell-based

COc1ccc2c3c1O[C@H]1C(=O)CC[C@@]4(O)[C@@H](C2)N(C)CC[C@]314 [Oxycodone, oxycodone, reference compound]
EC50: > 500 µM
